From patent US12629398B2, “Method of alleviating obsessive compulsive disorder symptoms by use of a multi-strain probiotic formulation” (Unique Biotech Limited, priority 2024, dated 2026)
“Also recorded” adds a separate entry of the source. Counter-ions that a name gives are not always drawn.

Legend:
quinpirole-injected rats [1] = test: Self-grooming test, quinpirole OCD model; design: species or system Wistar rats; conditions: rat, in vivo
Text: (§1) Experimental design was as given in Ref 12, incorporated herein in its entirety. The rats were randomly distributed into 5 different groups, with 6-8 rats per group (FIG. 1). Group 1, referred to as the “Vehicle” group, received the vehicle for a duration of 8 weeks. Group 2, denoted as the “Probiotic” group, received the peroral (PO) multistrain probiotic at a dose of 1× 10^10 CFU per rat for 8 weeks.

nNOS = test: Western blot analysis of nNOS in the frontal cortex; conditions: rat, in vivo; hydrochloride
Text: as §1
Radioimmunoprecipitation Assay (RIPA) buffer was used to homogenize the frontal cortex part of the rat brain and then resolved using sodium dodecyl sulfate-polyacrylamide gel electrophoresis (SDS-PAGE). The proteins were then transferred to a nitrocellulose membrane, blocked with 5% bovine serum albumin, and incubated with the primary antibody anti-NOS1 (sc-5302, 1:1000 dilution) overnight at 4° C., followed by incubation with horseradish peroxidase-conjugate secondary antibody at RT. The required proteins were then detected by using an ECL solution.

intestinal microbiota = test: 16S rRNA gene sequencing of fecal samples, intestinal microbiota; conditions: rat, in vivo
Text: as §1

TNF-α = test: Real-time PCR of cytokine mRNA in the amygdala: TNF-α; conditions: rat, in vivo
Experimental: as §1
(§2) RT-PCR was performed to analyze the impact of a multistrain probiotic on cytokines mRNA expression (Ref 20, Rahman et al). Briefly, NucleoSpin® RNA isolation kit (#740955.50, DSS Takara Bio India Private Ltd) was used to extract RNA from the rat brain's amygdala. PrimeScript™ 1st strand cDNA synthesis kit (#6110A, DSS Takara Bio India Private Ltd) was used to process these RNA samples to cDNA. The 10 μL reaction mixture was prepared by mixing 5 μL of SYBR Green, 2 μL of the PCR primer (1 μL reverse+1 μL forward) (GCC Biotech, India, Private Ltd.). 1 μL of diluted cDNA template and 2 μL nuclease-free water. For each PCR test, the threshold cycle numbers were averaged across all samples. Using Δ/Δ Ct technique, the relative mRNA expression was calculated. The primers were designed (Table 6) using the software tools NCBI BLAST.

quinpirole-injected rats [2] = test: Marble burying test, quinpirole OCD model; design: species or system Wistar rats; conditions: rat, in vivo
Text: as §1

colon = test: Colon histopathology (H&E and alcian blue-PAS staining); conditions: rat, in vivo
Experimental: as §1
To examine the gut permeability, H&E and alcian-blue PAS staining were performed. The method is already described in our publications (Ref 20, 21, and 22), incorporated herein in its entirety. Briefly, sections were processed for deparaffinization with xylene, rehydration with alcohol, and then stained with H&E and alcian blue-PAS agents. Finally, slides were mounted with (DPX) followed by observations under a microscope (Leica-ICC50 W).

IL-6 = test: Real-time PCR of cytokine mRNA in the amygdala: IL-6; conditions: rat, in vivo
Experimental: as §1, §2

quinpirole-injected rats [3] = test: Hole board test, quinpirole OCD model; design: species or system Wistar rats; conditions: rat, in vivo
Text: as §1

SCFAs = test: Short-chain fatty acids (SCFAs) in fecal samples by GC-FID; conditions: rat, in vivo
Text: as §1
The gas chromatography-flame ionization detection (GC-FID) was used to evaluate the effect of OCD on bacterial metabolites as described earlier in our publications (Ref 22, Rahman et al & Ref 23, Satti et al). Briefly, supernatant acidified with HCL (5 M) and then extracted in diethyl ether to estimate the SCFAs. The acetate, propionate, and butyrate levels were estimated by loading the known amount of each SCFA.

quinpirole-injected rats [4] = test: Elevated plus maze (EPM) test, anxiety-like behavior, quinpirole OCD model; design: species or system Wistar rats; conditions: rat, in vivo
Text: as §1

CCCN1CCC[C@@H]2Cc3n[nH]cc3C[C@H]21 [Quinpirole, (−)-Quinpirole hydrochloride]
self-grooming activity (number of grooming episodes, score) (quinpirole-injected rats [1]): higher grooming activity | expression of nNOS (nNOS): significantly increased levels; also recorded: increased expression | abundance of Lactobacillus reuteri (intestinal microbiota): reduced abundance | abundance of Lactobacillus vaginalis (intestinal microbiota): reduced abundance | levels of Allobaculum (intestinal microbiota): increased | levels of Bifidobacterium (intestinal microbiota): increased | levels of Prevotella genus (intestinal microbiota): increased | relative abundance of Bifidobacterium animalis (intestinal microbiota): increased relative abundance | relative abundance of Lactobacillus (intestinal microbiota): decreased | relative abundance of Ruminococcus flavefaciens (intestinal microbiota): increased relative abundance | mRNA expression of TNF-α (TNF-α): statistically insignificant | number of marbles buried (increase by quinpirole) (quinpirole-injected rats [2]): considerably more | number of mature goblet cells (colon): reduced | villus height/crypt depth ratio (colon): reduced | mRNA expression of IL-6 (IL-6): significant increase | head dipping activity (quinpirole-injected rats [3]): nonsignificant decrease | Acetate (μg/mL) (Mean ± S.E.M.) (SCFAs): 1.94 ± 0.14 µg/mL | Butyrate (μg/mL) (Mean ± S.E.M.) (SCFAs): 1.70 ± 0.73 µg/mL | Propionate (μg/mL) (Mean ± S.E.M.) (SCFAs): 1.25 ± 0.29 µg/mL | acetate level (SCFAs): lower levels | % Entries into open arms (quinpirole-injected rats [4]): fewer entries | % Time spent in the open arms (quinpirole-injected rats [4]): spent less time
